Our source for the lipophilic/hydrophilic character, logD and Kinetic constant k values is patent publication US5849771A, “Phosphorylated nitrone derivatives, method for preparing same, and compositions containing said derivatives” (Centre National de la Recherche Scientifique (C.N.R.S.), priority 1995, dated 1998).

The nature of series [1]: physchem. The protocol: Biol. Med. 14 (1993) 127. The partition coefficients are defined simply as the ratio of the nitrone concentration in the lipophilic phase (n-octanol) to the nitrone concentration in the aqueous phase.
Identical volumes (2 cm^3) of the octanolic nitrone solution prepared above and of a 10 mM phosphate buffer of pH=7.4 are agitated vigorously at 37° C. for 1 hour and the two phases are then separated by centrifuging (1000 g for 20 s) . The respective nitrone concentrations in each phase are then measured.

Series [2] can be described thus: Kinetics of decomposition (EPR) of superoxide trapping adducts (nitrone-OOH) in phosphate buffer medium. Conditions: decay of nitrone-OOH adduct, 0.1M phosphate buffer pH=5.8. The text has this: The adducts from trapping with the superoxide radical were produced using the riboflavin-DTPA (diethylenetriaminepentaacetic acid) system.
This system contains 1M of DTPA, […] of riboflavin and 0.1M of nitrone in a 0.1M phosphate buffer at pH=5.8.
This mixture is transferred into the cell of a Varian E-9 spectrometer. The cell is then irradiated to generate the superoxide radical in situ. At the end of irradiation the decrease in the adducts (nitrone-OOH) is studied using EPR analysis.

Regarding `CCOP(=O)(OCC)C(C)(C)[N+]([O-])=Cc1ccccc1` [Example 1, Diethyl 1-(N-benzylidene-N-oxy)amino-1-methylethyl-phosphonate], the lipophilic/hydrophilic character entry in series [1] (from partition coefficients, n-octanol/phosphate buffer) was “lipophilic”. The molecule further showed a pH-dependent lipophilicity (logD) at 1 h in series [1] (n-octanol/10 mm phosphate buffer, pH 7.4) of 1. Further, the Kinetic constant k in series [2] is listed as 2.26 ± 0.03 10^3 s^-1.
